Experimental data: patent US20260382690A1, “Dual-Domain Peptide for Depleting HMGB1 from the Circulation via Liver HSPG System” (published 2026)

Columns and labels:
plasma HMGB1 = assay: Plasma HMGB1 by ELISA in treated SS mice; settings: 2.72 mg/kg/d, subcutaneous, 3 weeks; mean±SD; SS+PBS 26.6±14.7, AA 11.0±4.6
Procedure: Effects of hE-HMGB1-BP on vasodilation, eNOS-dependent vasodilation, and plasma HMGB1. Townes SS mice were treated daily with hE-HMGB1-BP (Biomatik Corp., Kitchener, Ontario; 2.72 mg/kg/d, subcutaneous injection) for three weeks. On the day of the vasodilation studies, mice were anesthetized with isoflurane (1-3%), subjected to thoracotomy, and euthanized by exsanguination. A hypodermic needle was inserted into the heart's right side, and blood was drawn into EDTA. Plasma was separated by centrifugation. The plasma was divided into aliquots and stored at −80 °C until analysis for HMGB1 using ELISA kits from Tecan (30164033, Männedorf, Switzerland) as described. Facialis arteries were isolated by microdissection, cannulated, and pressurized to 60 mmHg. Changes in vasodilation of (5Z)-7-[(1R,4S,5S,6R)-6-[(1E,3S)-3-hydroxy-1-octenyl]-2-oxabicyclo[2.2.1]hept-5-yl]-5-heptenoic acid (U46619)-preconstricted, pressurized facialis arteries were determined by video microscopy in response to acetylcholine (Ach) (10-7-10-4 M) as before. […] The area between vasodilation curves in the absence and presence of L-NAME was calculated using the area under the curve function in Prism GraphPad 9.5.0 after correction of paired data for negative relaxation responses. […]

facialis arteries = assay: Endothelial-dependent (ACh-induced) vasodilation of isolated facialis arteries from treated SS mice; settings: 2.72 mg/kg/d, subcutaneous, 3 weeks
Procedure: Effects of hE-HMGB1-BP on vasodilation, eNOS-dependent vasodilation, and plasma HMGB1. Townes SS mice were treated daily with hE-HMGB1-BP (Biomatik Corp., Kitchener, Ontario; 2.72 mg/kg/d, subcutaneous injection) for three weeks. On the day of the vasodilation studies, mice were anesthetized with isoflurane (1-3%), subjected to thoracotomy, and euthanized by exsanguination. A hypodermic needle was inserted into the heart's right side, and blood was drawn into EDTA. Plasma was separated by centrifugation. The plasma was divided into aliquots and stored at −80 °C until analysis for HMGB1 using ELISA kits from Tecan (30164033, Männedorf, Switzerland) as described. Facialis arteries were isolated by microdissection, cannulated, and pressurized to 60 mmHg. Changes in vasodilation of (5Z)-7-[(1R,4S,5S,6R)-6-[(1E,3S)-3-hydroxy-1-octenyl]-2-oxabicyclo[2.2.1]hept-5-yl]-5-heptenoic acid (U46619)-preconstricted, pressurized facialis arteries were determined by video microscopy in response to acetylcholine (Ach) (10-7-10-4 M) as before. After determining vasodilation in the absence of N(G)-nitro-L-arginine methyl ester (L-NAME), the bath's MOPS physiological buffer [CaC12 2H2O (2.0 mM), EDTA (0.02 mM), glucose (5.0 mM), KCl (4.7 mM), MgSO4·7H2O (1.17 mM), MOPS (3.0 mM), NaCl (145 mM), NaH2PO4OH2O (1.2 mM), pyruvic acid (2.0 mM)] was replaced with 37 °C MOPS physiological buffer containing L-NAME (100 μM) and Ach-induced relaxation responses determined once again, as above. eNOS-dependent vasodilation was determined from the area between curves (ABC). The area between vasodilation curves in the absence and presence of L-NAME was calculated using the area under the curve function in Prism GraphPad 9.5.0 after correction of paired data for negative relaxation responses. […]
Effects of inhibiting GSNOR on vasodilation in SS mice. […] Relaxation responses to Ach (10-7 to 10 4 M) were determined in MOPS physiological buffer in the absence and presence of L-NAME by video microscopy as described. […]

With `CC[C@H](C)[C@H](NC(=O)CNC(=O)[C@H](CCCCN)NC(=O)[C@@H](NC(=O)[C@H](CC(=O)O)NC(=O)[C@H](Cc1ccccc1)NC(=O)[C@H](CC(N)=O)NC(=O)[C@H](CC(N)=O)NC(=O)[C@H](C)NC(=O)[C@H](CO)NC(=O)[C@H](Cc1c[nH]cn1)NC(=O)[C@H](C)NC(=O)CNC(=O)CNC(=O)[C@H](CCCNC(=N)N)NC(=O)[C@H](CC(C)C)NC(=O)[C@H](CC(C)C)NC(=O)[C@H](CCCNC(=N)N)NC(=O)[C@H](CCCCN)NC(=O)[C@H](CCCNC(=N)N)NC(=O)[C@H](CC(C)C)NC(=O)[C@H](CCCCN)NC(=O)[C@H](CCCNC(=N)N)NC(=O)[C@H](CC(C)C)NC(C)=O)C(C)C)C(N)=O` the “plasma HMGB1 concentration” value (plasma HMGB1) was 14.2 ± 6.0 ng/mL, the “endothelial-dependent vasodilation versus AA mice” value (facialis arteries; ns, p=0.1071) was “essentially equivalent to the endothelial-dependent vasodilation in AA mice” and the “increase in endothelial-dependent vasodilation versus SS+PBS mice” value (facialis arteries; p<0.0001) was “more than 2.5 times”.
